Counter-ions that a name gives are not always drawn.
Target: pepsin (Homo sapiens, UniProt P0DJD8)
Assay: stability to enzymatic cleavage as a substrate for pepsin
Conditions: same conditions for β-peptides and α-peptide comparator

Chains of the proteins cited; added tags and fusions are not shown. Residues count along the entry.
UniProt P0DJD8, 63-388: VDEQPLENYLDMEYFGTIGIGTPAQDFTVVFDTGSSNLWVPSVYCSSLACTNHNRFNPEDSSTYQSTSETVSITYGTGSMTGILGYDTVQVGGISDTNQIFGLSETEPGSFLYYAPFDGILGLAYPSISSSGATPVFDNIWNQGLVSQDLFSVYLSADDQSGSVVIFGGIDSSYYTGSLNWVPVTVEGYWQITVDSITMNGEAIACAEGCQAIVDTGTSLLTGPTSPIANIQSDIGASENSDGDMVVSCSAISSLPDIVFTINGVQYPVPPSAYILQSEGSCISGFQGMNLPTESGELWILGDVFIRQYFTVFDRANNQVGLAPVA

Compound: CC(C)C[C@H](CNC(=O)[C@H](C)CNC(=O)[C@@H](CNC(=O)[C@@H](CNC(=O)[C@H](C)CNC(=O)[C@@H](CN)C(C)C)CC(C)C)C(C)C)C(=O)O [(R)-Aminomethylvalyl-(R)-aminomethylalanyl-(R)-aminomethylleucyl-(R)-aminomethylvalyl-(R)-aminomethylalanyl-(R)-aminomethylleucinate Trifluoroacetate]
- stability as a substrate for pepsin: fully stable for several days

From US6617425B1, “Peptides” (Novartis AG, priority 1996, dated 2003)
